In the assay the target is Adenosine receptor A3 (Homo sapiens, UniProt P0DMS8). The experiment in a line: Binding affinity to adenosine A3 receptor (unknown origin).

Chains of the proteins cited; added tags and fusions are not shown.
UniProt P0DMS8, whole entry: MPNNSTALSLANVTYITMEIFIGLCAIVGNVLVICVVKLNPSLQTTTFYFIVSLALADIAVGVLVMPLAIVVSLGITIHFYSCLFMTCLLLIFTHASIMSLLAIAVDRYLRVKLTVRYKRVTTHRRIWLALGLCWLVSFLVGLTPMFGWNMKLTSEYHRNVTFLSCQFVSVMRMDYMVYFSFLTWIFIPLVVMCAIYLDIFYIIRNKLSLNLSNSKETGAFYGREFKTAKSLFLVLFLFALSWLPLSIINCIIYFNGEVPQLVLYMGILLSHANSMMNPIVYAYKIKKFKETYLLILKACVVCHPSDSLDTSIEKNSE

This note sets out measurements from ChEMBL document CHEMBL3769306, “Discovery of Molecular Therapeutics for Glaucoma: Challenges, Successes, and Promising Directions” (J Med Chem, 2016).

The Ki is the equilibrium dissociation constant of an inhibitor or competing ligand from its target. In turn, `C[C@H](Cc1ccccc1)Nc1ncnc2c1ncn2[C@@H]1O[C@H](CO)[C@@H](O)[C@H]1O` [(R)-PIA] yielded a Ki of 16 nM.
